Source: ChEMBL document CHEMBL1146418, “A new flavone C-glycoside and antiplatelet and vasorelaxing flavones from Gentiana arisanensis” (J Nat Prod, 1997)

Tests used:
Platelet = assay: Inhibition of arachidonic acid-induced platelet aggregation in rabbit plasma preincubated 3 mins before addition of thrombin by turbidimetric method; type: functional, cell-free; conditions: Oryctolagus cuniculus
Aorta [1] = assay: Inhibition of Ca2+-induced Wistar rat thoracic aorta contraction in high K+ medium pretreated 15 mins before addition of Ca2+ and K+; type: functional, tissue-based
Aorta [2] = assay: Inhibition of noradrenaline-induced Wistar rat thoracic aorta tonic contraction in high K+ medium pretreated 15 mins before addition of Ca2+ and K+ relative to control; type: functional, tissue-based
Aorta [3] = assay: Inhibition of noradrenaline-induced Wistar rat thoracic aorta phasic contraction in high K+ medium pretreated 15 mins before addition of Ca2+ and K+ relative to control; type: functional, tissue-based

Measured: Activity

O=c1cc(-c2ccc(O)c(O)c2)oc2cc(O)cc(O)c12 [LUTEOLIN]
active: Platelet Dose-dependent effect | Aorta [1] Dose-dependent effect | Aorta [2] Dose-dependent effect | Aorta [3] Dose-dependent effect
